# In PubChem BioAssay (NCI):
#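 Method: 48-hour compound exposure of cells in 96-well plates, five concentrations, linear interpolation of endpoints. GI50 = concentration required for 50% inhibition of growth. TGI marks complete inhibition of growth.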
# What was measured:
# Test in all cases: NCI tumour cell line growth inhibition, 48 h
# HOP-62 NSCLC = test system: HOP-62 NSCLC
# HCT-15 colon = test system: HCT-15 colon
# NCI-H460 lung = test system: NCI-H460 lung
# DMS 114 small cell lung = test system: DMS 114 small cell lung
# SNB-75 CNS = test system: SNB-75 CNS
# UACC-62 melanoma = test system: UACC-62 melanoma
# A549 NSCLC = test system: A549 NSCLC
# HOP-92 NSCLC = test system: HOP-92 NSCLC
# UO-31 renal = test system: UO-31 renal
# KM12 colon = test system: KM12 colon
# SK-MEL-2 melanoma = test system: SK-MEL-2 melanoma
# HOP-18 NSCLC = test system: HOP-18 NSCLC
# EKVX NSCLC = test system: EKVX NSCLC
# SF-268 CNS = test system: SF-268 CNS
# OVCAR-3 ovarian = test system: OVCAR-3 ovarian
# RXF 393 renal = test system: RXF 393 renal
# RPMI-8226 leukemia = test system: RPMI-8226 leukemia
# HCC-2998 colon = test system: HCC-2998 colon
# U251 CNS = test system: U251 CNS
# M19-MEL melanoma = test system: M19-MEL melanoma
# SN12C renal = test system: SN12C renal
# P388 leukemia = test system: P388 leukemia
# A498 renal = test system: A498 renal
# SK-MEL-28 melanoma = test system: SK-MEL-28 melanoma
# SW-620 colon = test system: SW-620 colon
# DLD-1 colon = test system: DLD-1 colon
# SNB-19 CNS = test system: SNB-19 CNS
# LOX IMVI melanoma = test system: LOX IMVI melanoma
# OVCAR-5 ovarian = test system: OVCAR-5 ovarian
smiles,measurement,setting,value
CC(O)CCOP(=O)(N(CCCl)CCCl)N1CC1 (configuration not stated),GI50,HOP-62 NSCLC,> 100 µM
same,TGI,HOP-62 NSCLC,> 100 µM
same,GI50,HCT-15 colon,> 100 µM
same,TGI,HCT-15 colon,> 100 µM
same,GI50,NCI-H460 lung,95 µM
same,TGI,NCI-H460 lung,> 100 µM
same,GI50,DMS 114 small cell lung,> 100 µM
same,TGI,DMS 114 small cell lung,> 100 µM
same,GI50,SNB-75 CNS,74.1 µM
same,TGI,SNB-75 CNS,> 100 µM
same,GI50,UACC-62 melanoma,> 100 µM
same,TGI,UACC-62 melanoma,> 100 µM
same,GI50,A549 NSCLC,> 100 µM
same,TGI,A549 NSCLC,> 100 µM
same,GI50,HOP-92 NSCLC,> 100 µM
same,TGI,HOP-92 NSCLC,> 100 µM
same,GI50,UO-31 renal,> 100 µM
same,TGI,UO-31 renal,> 100 µM
same,GI50,KM12 colon,> 100 µM
same,TGI,KM12 colon,> 100 µM
same,GI50,SK-MEL-2 melanoma,> 100 µM
same,TGI,SK-MEL-2 melanoma,> 100 µM
same,GI50,HOP-18 NSCLC,> 100 µM
same,TGI,HOP-18 NSCLC,> 100 µM
same,GI50,EKVX NSCLC,> 100 µM
same,TGI,EKVX NSCLC,> 100 µM
same,GI50,SF-268 CNS,> 100 µM
same,TGI,SF-268 CNS,> 100 µM
same,GI50,OVCAR-3 ovarian,> 100 µM
same,TGI,OVCAR-3 ovarian,> 100 µM
same,GI50,RXF 393 renal,> 100 µM
same,TGI,RXF 393 renal,> 100 µM
same,GI50,RPMI-8226 leukemia,> 100 µM
same,TGI,RPMI-8226 leukemia,> 100 µM
same,GI50,HCC-2998 colon,> 100 µM
same,TGI,HCC-2998 colon,> 100 µM
same,GI50,U251 CNS,> 100 µM
same,TGI,U251 CNS,> 100 µM
same,GI50,M19-MEL melanoma,> 100 µM
same,TGI,M19-MEL melanoma,> 100 µM
same,GI50,SN12C renal,> 100 µM
same,TGI,SN12C renal,> 100 µM
same,GI50,P388 leukemia,> 100 µM
same,TGI,P388 leukemia,> 100 µM
same,GI50,A498 renal,> 100 µM
same,TGI,A498 renal,> 100 µM
same,GI50,SK-MEL-28 melanoma,> 100 µM
same,TGI,SK-MEL-28 melanoma,> 100 µM
same,GI50,SW-620 colon,> 100 µM
same,TGI,SW-620 colon,> 100 µM
same,GI50,DLD-1 colon,> 100 µM
same,TGI,DLD-1 colon,> 100 µM
same,GI50,SNB-19 CNS,> 100 µM
same,TGI,SNB-19 CNS,> 100 µM
same,GI50,LOX IMVI melanoma,> 100 µM
same,TGI,LOX IMVI melanoma,> 100 µM
same,GI50,OVCAR-5 ovarian,> 100 µM
